Source: ChEMBL document CHEMBL1777732, “Efficacy switching SAR of mGluR5 allosteric modulators: highly potent positive and negative modulators from one chemotype” (Bioorg Med Chem Lett, 2011)
The source made the active and inactive calls. The rule behind the calls is not given here.

The chains behind the UniProt entries cited, without tags or fusion partners.
UniProt P41594, whole entry, looked up: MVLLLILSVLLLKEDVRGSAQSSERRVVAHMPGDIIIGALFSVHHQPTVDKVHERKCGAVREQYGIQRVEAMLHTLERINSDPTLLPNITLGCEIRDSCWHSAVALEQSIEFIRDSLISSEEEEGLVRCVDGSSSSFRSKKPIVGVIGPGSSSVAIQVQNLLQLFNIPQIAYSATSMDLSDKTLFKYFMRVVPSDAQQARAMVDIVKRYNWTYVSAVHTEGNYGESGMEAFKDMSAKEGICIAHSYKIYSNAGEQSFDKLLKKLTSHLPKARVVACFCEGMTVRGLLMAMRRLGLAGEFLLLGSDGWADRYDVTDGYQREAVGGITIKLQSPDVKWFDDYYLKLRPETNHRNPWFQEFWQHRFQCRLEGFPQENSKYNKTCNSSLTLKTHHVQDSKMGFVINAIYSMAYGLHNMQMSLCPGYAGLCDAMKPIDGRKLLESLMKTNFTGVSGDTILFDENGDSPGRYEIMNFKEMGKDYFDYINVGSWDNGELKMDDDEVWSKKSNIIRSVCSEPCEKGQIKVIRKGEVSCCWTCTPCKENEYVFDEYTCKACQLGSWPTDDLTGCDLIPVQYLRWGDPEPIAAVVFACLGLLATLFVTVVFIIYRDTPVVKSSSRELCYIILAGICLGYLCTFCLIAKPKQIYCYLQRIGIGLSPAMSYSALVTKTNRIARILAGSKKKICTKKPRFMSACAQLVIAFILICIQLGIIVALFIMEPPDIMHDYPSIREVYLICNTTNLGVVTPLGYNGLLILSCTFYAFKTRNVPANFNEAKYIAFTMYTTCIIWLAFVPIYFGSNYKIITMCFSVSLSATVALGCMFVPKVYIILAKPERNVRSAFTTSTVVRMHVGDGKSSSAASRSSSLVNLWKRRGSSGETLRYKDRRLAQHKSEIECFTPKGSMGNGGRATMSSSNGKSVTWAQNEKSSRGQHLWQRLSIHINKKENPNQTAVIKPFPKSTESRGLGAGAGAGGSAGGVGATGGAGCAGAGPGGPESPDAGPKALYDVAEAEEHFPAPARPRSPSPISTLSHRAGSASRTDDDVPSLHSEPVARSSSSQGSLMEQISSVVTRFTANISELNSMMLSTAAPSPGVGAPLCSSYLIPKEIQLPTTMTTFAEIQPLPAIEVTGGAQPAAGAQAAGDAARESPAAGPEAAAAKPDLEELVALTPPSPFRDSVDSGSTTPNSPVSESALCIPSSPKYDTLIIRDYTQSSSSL

How the values were obtained:
[1] = target: T1, Metabotropic glutamate receptor 5 (Homo sapiens, UniProt P41594); assay: Negative allosteric modulation of human mGluR5 expressed in HEK293 cells assessed as inhibition of L-glutamate-induced calcium mobilization at 10 uM by FLIPR assay relative to control; assay type: functional, cell-based
[2] = target: T1, Metabotropic glutamate receptor 5; assay: Positive allosteric modulation of human mGluR5 expressed in HEK293 cells assessed as increase of L-glutamate-induced calcium mobilization at 10 uM by FLIPR assay relative to L-glutamate; assay type: functional, cell-based

Imax [1]	Emax [2]	SMILES
inactive	inactive	CC(C)N1CCc2nc(C#Cc3cccnc3)ccc2C1=O
inactive	inactive	CN1CCc2nc(C#Cc3cccnc3)ccc2C1=O
